For the assay, the target named is RAC-gamma serine/threonine-protein kinase (Homo sapiens, UniProt Q9Y243). Briefly: Inhibition of AKT3 in presence of 0.2 uM ATP. The gist of the method:
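Biochemical kinase IC50s, each run with ATP at or below its Km.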

Sequences of proteins named here, by UniProt entry; tags and fusion partners are left off. A change or cut given only in a name is not applied to a line headed by its entry.
UniProt Q9Y243: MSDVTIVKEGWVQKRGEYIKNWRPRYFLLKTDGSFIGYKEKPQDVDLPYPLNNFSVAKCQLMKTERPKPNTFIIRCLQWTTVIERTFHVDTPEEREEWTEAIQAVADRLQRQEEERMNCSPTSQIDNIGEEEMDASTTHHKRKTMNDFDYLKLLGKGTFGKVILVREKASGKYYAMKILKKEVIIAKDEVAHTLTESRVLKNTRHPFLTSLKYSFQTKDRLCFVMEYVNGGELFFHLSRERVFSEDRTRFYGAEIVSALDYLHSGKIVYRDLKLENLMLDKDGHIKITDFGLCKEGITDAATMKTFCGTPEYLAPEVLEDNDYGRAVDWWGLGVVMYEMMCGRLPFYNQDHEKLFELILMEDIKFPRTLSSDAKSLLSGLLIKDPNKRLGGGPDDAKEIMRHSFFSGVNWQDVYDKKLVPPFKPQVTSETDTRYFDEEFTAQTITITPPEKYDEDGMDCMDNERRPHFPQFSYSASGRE

pIC50: −log10 of the molar value.

For `CNc1nccc(-c2ccc(C(=O)N[C@H](CN)Cc3ccc(Cl)cc3Cl)s2)n1`, the pIC50 (usually the IC50 on a negative log10 scale, so that one unit is a factor of ten) is 8.59.

The values are drawn from ChEMBL document CHEMBL1146851, “Discovery of 2-pyrimidyl-5-amidothiophenes as potent inhibitors for AKT: synthesis and SAR studies” (Bioorg Med Chem Lett, 2006).
